Source: patent publication US20020013350A1 (priority 1998, published 2002)

Tested on: rice blast fungi (Pyricularia oryzae)
Format: in vivo
Conditions: 12.5 ppm, sprayed on rice (Kimmaze), inoculated 7 days after treatment

Cc1cccc2sc3nncn3c12 [Tricyclazole, 5-Methyl-1,2,4-triazolo[3,4-b]benzothiazole]
Actual controlling degree (%): 22%
